These are literature values, as cited in patent publication EP4527389A1, “PROLONGED-RELEASE INJECTABLE COMPOSITIONS FOR USE IN TREATMENT WITH RISPERIDONE TOGETHER WITH CYP2D6 ENZYME INHIBITORS” (Laboratorios Farmacéuticos Rovi S.A., priority 2022, dated 2023).

Chains of the proteins cited; added tags and fusions are not shown.
UniProt P10635, whole entry: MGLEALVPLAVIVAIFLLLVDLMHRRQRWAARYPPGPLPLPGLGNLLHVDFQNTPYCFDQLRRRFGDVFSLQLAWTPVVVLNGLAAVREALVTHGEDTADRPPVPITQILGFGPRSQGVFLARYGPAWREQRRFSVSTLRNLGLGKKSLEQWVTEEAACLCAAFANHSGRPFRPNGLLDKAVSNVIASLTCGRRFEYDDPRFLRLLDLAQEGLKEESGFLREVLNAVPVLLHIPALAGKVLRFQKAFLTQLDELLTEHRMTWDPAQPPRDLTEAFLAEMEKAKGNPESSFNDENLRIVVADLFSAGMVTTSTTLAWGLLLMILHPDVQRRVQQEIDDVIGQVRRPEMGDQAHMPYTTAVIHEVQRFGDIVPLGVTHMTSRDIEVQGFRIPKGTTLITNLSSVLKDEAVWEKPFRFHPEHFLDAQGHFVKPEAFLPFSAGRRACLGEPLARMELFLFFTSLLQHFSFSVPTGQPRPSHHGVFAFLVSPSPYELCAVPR

This data set deals with CYP2D6 (cytochrome P450 2D6) enzyme (Homo sapiens, UniProt P10635). The note with it: three categories: strong, moderate, weak.

SMILES strings stand for the structures.

Consider `Cc1nc2n(c(=O)c1CCN1CCC(c3noc4cc(F)ccc34)CC1)CCCC2` [Risperidone], for which the “CYP2D6 enzyme inhibitor category” value is recorded as “strong CYP2D6 inhibitors”.
